Measurements from patent US6399615B1, “Farnesyl protein transferase inhibitors” (Schering Corporation, priority 1997, dated 2002).

Protein sequences, listed by entry. Tags and fused reporters are not part of them.
UniProt P49356, whole entry: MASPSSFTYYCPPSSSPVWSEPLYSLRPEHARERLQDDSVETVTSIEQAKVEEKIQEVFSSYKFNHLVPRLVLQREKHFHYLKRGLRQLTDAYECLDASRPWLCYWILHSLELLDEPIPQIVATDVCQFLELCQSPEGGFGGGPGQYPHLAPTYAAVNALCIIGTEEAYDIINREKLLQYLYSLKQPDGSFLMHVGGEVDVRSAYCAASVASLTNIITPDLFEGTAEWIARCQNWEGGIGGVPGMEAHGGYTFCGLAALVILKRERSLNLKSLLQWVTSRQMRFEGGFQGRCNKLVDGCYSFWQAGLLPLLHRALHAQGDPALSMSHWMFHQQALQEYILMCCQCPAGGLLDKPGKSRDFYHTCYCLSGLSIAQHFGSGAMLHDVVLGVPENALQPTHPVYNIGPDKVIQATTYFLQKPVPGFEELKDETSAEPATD

Legend:
[1] = target: farnesyl protein transferase (Homo sapiens, UniProt P49354+P49356); experiment: FPT IC50 (inhibition of farnesyl protein transferase, in vitro enzyme assay); conditions: read-out: FPT IC50
Experimental: (§1) FPT IC50 (inhibition of farnesyl protein transferase, in vitro enzyme assay) and COS Cell IC50 (Cell-Based Assay) were determined following the assay procedures described in WO 95/10516, published Apr. 20, 1995. GGPT IC50 (inhibition of geranylgeranyl protein transferase, in vitro enzyme assay), Cell Mat Assay, and anti-tumor activity (in vivo anti-tumor studies) could be determined by the assay procedures described in WO 95/10516. The disclosure of WO 95/10516 is incorporated herein by reference thereto.

COS Cell = COS Cell IC50 (Cell-Based Assay); conditions: read-out: COS Cell IC50; COS cells
Experimental: as §1

CCOC(=O)C1CCC(CC(=O)N2CCC([C@H]3c4ncc(Br)cc4CCc4cc(Cl)cc(Br)c43)CC2)CC1 (some centres unmarked)
IC50 [1]: 5.6 nM | IC50 (COS Cell): 22 nM
